The record followed here is paper PMC10945505.

In general, Kd refers to the constant that tells how readily two partners part at equilibrium. A high value points to lower affinity.

The target in this experiment is FZD7 CRD (Homo sapiens). In words: BLI. (In general: In BLI a coated tip is dipped into the sample, and binding shifts an interference pattern.)

As to F-FGF21ΔC (from UniProt Q9NSA1 29-189), the Kd came out at 63.7 nM.
With “F-FGF21ΔNΔC (from UniProt Q9NSA1 46-189)” the figure was 53.6 nM.
